Test results as given in paper PMC3336786 (The FASEB Journal, 2012).
Positions count from the first letter of the chain named.

By UniProt entry, the sequences of proteins in these tests, tags left out. Where a name states a change or a piece, a line headed by the entry shows the natural chain unless it says otherwise. Residues count along the entry.
UniProt P18507, 40-475: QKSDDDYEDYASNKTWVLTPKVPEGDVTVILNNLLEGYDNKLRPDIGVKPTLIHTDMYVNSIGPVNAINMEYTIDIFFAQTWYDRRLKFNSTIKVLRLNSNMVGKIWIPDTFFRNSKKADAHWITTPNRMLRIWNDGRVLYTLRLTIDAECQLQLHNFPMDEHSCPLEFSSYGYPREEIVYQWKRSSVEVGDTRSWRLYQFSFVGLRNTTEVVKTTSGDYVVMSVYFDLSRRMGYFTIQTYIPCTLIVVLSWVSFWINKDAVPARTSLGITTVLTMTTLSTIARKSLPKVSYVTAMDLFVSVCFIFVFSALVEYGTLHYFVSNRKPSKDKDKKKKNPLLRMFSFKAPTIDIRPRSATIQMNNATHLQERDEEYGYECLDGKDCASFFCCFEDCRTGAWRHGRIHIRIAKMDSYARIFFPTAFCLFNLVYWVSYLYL

Key:
Assay type in all cases: cell-based
[1] = target: T1, RDL (Drosophila melanogaster, UniProt P25123)
T1 sequence (P25123 45-606): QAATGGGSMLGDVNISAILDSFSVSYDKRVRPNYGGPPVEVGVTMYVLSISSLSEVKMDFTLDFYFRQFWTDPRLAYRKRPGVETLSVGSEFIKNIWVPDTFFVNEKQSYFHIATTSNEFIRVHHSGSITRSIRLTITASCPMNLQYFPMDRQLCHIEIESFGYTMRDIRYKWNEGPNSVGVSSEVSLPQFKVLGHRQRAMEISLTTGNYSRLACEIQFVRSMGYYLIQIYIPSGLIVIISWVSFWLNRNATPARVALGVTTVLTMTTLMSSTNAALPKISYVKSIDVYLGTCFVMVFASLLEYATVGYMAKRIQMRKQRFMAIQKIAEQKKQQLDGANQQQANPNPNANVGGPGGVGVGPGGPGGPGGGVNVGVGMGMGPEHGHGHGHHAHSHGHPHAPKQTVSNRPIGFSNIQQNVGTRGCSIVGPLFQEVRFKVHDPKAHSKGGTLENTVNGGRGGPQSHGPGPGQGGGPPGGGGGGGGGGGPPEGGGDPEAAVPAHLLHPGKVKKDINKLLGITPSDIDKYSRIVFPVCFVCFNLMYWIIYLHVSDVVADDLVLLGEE

[2] = target: T2, RDLA2'V (Drosophila melanogaster, UniProt P25123, A301V); settings: inhibition of GABA EC50 response
T2 sequence (P25123 45-606 A301V): T1 sequence (P25123 45-606) with A257V

[3] = target: T3, human α1β2 GABAA receptors (Homo sapiens, UniProt P14867+P47870); test: Two-electrode voltage clamp of α1β2 GABAA receptors in Xenopus oocytes; settings: inhibition of GABA EC50 response
T3 sequence (P14867 28-456): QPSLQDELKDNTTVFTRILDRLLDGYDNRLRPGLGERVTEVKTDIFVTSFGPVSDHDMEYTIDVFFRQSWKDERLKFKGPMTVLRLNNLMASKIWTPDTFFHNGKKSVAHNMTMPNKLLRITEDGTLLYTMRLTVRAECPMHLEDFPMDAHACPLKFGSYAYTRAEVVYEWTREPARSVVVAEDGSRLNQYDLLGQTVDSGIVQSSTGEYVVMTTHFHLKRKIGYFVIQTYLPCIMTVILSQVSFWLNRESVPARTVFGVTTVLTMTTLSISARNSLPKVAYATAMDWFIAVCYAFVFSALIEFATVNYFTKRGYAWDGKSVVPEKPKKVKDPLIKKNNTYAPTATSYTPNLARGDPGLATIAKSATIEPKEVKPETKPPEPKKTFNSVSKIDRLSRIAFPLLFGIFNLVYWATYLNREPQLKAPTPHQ
T3 sequence (P47870 26-512): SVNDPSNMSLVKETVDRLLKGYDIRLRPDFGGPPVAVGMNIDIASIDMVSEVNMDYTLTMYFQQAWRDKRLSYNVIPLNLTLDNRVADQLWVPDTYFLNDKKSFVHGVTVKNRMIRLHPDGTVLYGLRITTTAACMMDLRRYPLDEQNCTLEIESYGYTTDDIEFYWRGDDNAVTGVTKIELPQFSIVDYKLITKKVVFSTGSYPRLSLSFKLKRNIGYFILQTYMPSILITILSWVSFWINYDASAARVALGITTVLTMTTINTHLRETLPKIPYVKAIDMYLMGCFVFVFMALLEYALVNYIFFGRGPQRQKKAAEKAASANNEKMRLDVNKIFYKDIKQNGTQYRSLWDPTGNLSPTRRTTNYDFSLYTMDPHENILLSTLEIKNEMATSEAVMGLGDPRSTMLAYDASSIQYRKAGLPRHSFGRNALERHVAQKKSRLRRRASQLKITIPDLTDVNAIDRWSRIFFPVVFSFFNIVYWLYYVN

[4] = target: T4, α1V2'Aβ2 (Homo sapiens, UniProt P14867+P47870, V284A); settings: inhibition of GABA EC50 response
T4 sequence (P14867 28-456 V284A): T3 sequence (P14867 28-456) with V257A
T4 sequence (P47870 26-512): T3 sequence (P47870 26-512)

[5] = target: α1β2γ2 GABAA receptors (Homo sapiens, UniProt P14867+P18507+P47870); test: Two-electrode voltage clamp of α1β2γ2 GABAA receptors in Xenopus oocytes; settings: inhibition of GABA EC50 response
[6] = target: α1V2'Aβ2γ2 (Homo sapiens, UniProt P14867+P18507+P47870, V284A); settings: inhibition of GABA EC50 response
[7] = target: T5, RDLT6'V (Drosophila melanogaster, UniProt P25123, T305V); test: Two-electrode voltage clamp of RDLT6'V mutant receptors in Xenopus oocytes; settings: inhibition of GABA-activated responses
T5 sequence (P25123 45-606 T305V): T1 sequence (P25123 45-606) with T261V

ginkgolide B [GB]
IC50 [1]: 0.018 µM
pIC50 [1]: 7.74 ± 0.03 M
IC50 [2]: 310 µM
pIC50 [2]: 3.51 ± 0.07 M
IC50 [3]: 15.1 µM
pIC50 [3]: 4.82 ± 0.04 M
IC50 [4]: 4.68 µM
pIC50 [4]: 5.33 ± 0.04 M
IC50 [5]: 115 µM
pIC50 [5]: 3.94 ± 0.05 M
IC50 [6]: 14.8 µM
pIC50 [6]: 4.83 ± 0.05 M
IC50 [7]: 257 µM
pIC50 ([7]; NI = 50% inhibition not reached at 1 mM): 3.59 ± 0.36
